# Data from US20250171743A1, “HUMAN TOOTH ORGANOIDS” (Katholieke Universiteit Leuven, priority 2022, published 2025).
# Tested on: dental follicle-derived organoids
# Assay: Organoid growth with EGFR blocking added at passaging
# Assay type: cell-based, human
# Conditions: day 14, smaller organoids (FIG. 9b)
# From the text: To establish organoids from primary tissues, supplementation of EGF is generally found quintessential. […] In vivo, it is known that elevated EGF levels in the epithelial cell rests of Malassez compartment (as, for instance, occurring upon tooth movement, infection or trauma) activates epithelial cell rests of Malassez cell proliferation [Davis (2018) J. Vet. Dent. 35, 290-298]. […] It has been proposed that EMT induction in the epithelial cell rests of Malassez (as, for instance, occurring upon damaging tooth impact) enables the cells to migrate and eventually contribute to regeneration of neighbouring tissues [Davis (2018) J. Vet. Dent. 35, 290-298].
# The dissociated dental follicle cell material was resuspended in a mixture of serum-free defined medium (SFDM; Thermo Fisher Scientific; Table 4) and growth factor-reduced Matrigel (Corning) in a 30:70 ratio, which was plated in 48-well plates at 20,000 cells per 20 μL drop. After solidification, tooth organoid medium (TOM; Table 1), unless indicated otherwise, was supplemented. ROCK inhibitor (RI; 10 μM; Merck Millipore) was added the first day of seeding (or passaging). Organoid cultures were kept at 37° C. in a 1.9% CO2 incubator, and medium was refreshed every 2 to 3 days, each time supplemented with fungizone (0.1%).
# The organoid cultures were passaged every 10 to 14 days. […]
substance,measurement,value
cetuximab,organoid growth,compromised organoid growth
